Measurements from patent publication US10266526B2, “Substituted 1,2,3-triazoles as SMYD inhibitors for treating cancer” (EPIZYME, INC., priority 2014, dated 2019).
Where two headings read alike, the source gives them in different places.

Sequences of proteins named here, by UniProt entry; tags and fusion partners are left off. A change or cut given only in a name is not applied to a line headed by its entry.
UniProt Q9H7B4: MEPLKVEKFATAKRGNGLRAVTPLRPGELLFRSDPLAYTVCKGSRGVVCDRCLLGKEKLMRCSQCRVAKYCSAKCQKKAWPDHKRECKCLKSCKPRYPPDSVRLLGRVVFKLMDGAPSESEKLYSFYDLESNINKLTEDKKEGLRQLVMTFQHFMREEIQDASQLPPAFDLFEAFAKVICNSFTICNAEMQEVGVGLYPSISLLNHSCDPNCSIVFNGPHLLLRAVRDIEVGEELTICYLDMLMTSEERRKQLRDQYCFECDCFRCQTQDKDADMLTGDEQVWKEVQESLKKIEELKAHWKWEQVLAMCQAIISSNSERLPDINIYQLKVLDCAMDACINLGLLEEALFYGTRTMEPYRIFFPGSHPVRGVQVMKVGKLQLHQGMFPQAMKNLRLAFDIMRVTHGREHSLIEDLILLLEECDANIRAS
UniProt Q9NRG4: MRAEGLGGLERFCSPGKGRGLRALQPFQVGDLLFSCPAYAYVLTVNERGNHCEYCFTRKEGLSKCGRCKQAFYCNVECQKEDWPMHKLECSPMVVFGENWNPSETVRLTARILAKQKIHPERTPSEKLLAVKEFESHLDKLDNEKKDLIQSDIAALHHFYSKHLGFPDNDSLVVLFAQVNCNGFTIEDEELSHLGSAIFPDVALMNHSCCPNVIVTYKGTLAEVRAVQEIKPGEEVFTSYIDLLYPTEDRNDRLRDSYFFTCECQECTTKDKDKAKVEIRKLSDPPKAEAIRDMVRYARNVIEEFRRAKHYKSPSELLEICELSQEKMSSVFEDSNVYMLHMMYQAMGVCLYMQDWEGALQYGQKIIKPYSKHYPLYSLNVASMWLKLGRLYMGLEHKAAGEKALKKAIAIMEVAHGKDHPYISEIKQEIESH

How the values were obtained:
SMYD3 = SMYD3 (Homo sapiens (Human), UniProt Q9H7B4); assay: SMYD3 biochemical assay (SMYD3 enzyme assay on MEKK2 protein substrate, 3H-SAM scintillation proximity assay); settings: read-out: SMYD3 Biochem IC50
Source text: S-adenosylmethionine (SAM), S-adenosylhomocysteine (SAH), Tris, Tween20, dimethylsulfoxide (DMSO), bovine skin gelatin (BSG), and Tris(2-carboxyethyl)phosphine hydrochloride solution (TCEP) were purchased from Sigma-Aldrich at the highest level of purity possible. ^3H-SAM was purchase from American Radiolabeled Chemicals with a specific activity of 80 Ci/mmol. 384-well opaque white OptiPlates and SPA beads (Perkin Elmer, catalog # RPNQ0013) were purchased from PerkinElmer.
N-terminally GST-tagged MEKK2 (MAP3K2) protein corresponding to reference sequence AAF63496.3 was purchased from Life Technologies (catalog # PV4010). This protein was expressed in High Five insect cells and purified to >85% purity. Protein identity was confirmed by MS/MS analysis after proteolytic digestion. The protein sequence used was:
Full-length human SMYD3 isoform 1 (BAB86333) was inserted into a modified pET21b plasmid containing a His6 tag and TEV and SUMO cleavage sites. […]
The assays were all performed in a buffer consisting of 25 mM Tris-Cl pH 8.0, 1 mM TCEP, 0.005% BSG, and 0.005% Tween 20, prepared on the day of use. […] Radiolabeled MEKK2 was detected using a scintillation proximity assay (SPA). […]

SMYD2 = SMYD2 (Homo sapiens (Human), UniProt Q9NRG4); assay: SMYD2 biochemical assay (SMYD2 enzyme assay on peptide substrate, 3H-SAM Flashplate)
[1] = read-out: SMYD2 Biochem IC50, IC50 values are an average of n = 1 to n = 50
[2] = SMYD2 Biochem IC50, IC50 values are an average of n = 1 to n = 50
[3] = SMYD2 Biochem IC50 (μM), IC50 values are an average of n = 1 to n = 50

| Structure (SMILES) | IC50 (SMYD2; [1]) [µM] | other results |
| --- | --- | --- |
| NCCC(=O)N[C@H]1CC[C@H](NC(=O)c2cccc3c2NC(=O)C3)CC1 [compound 505, N-((1r,4r)-4-(3-aminopropanamido)cyclohexyl)-2-oxoindoline-7-carboxamide] | – | IC50 (SMYD3): 16.1 µM |
| COc1cccc(C(C)N2CC(NC(=O)c3cn(C4CC4)nn3)C2)c1OC (centres unmarked) [compound 764, 1-cyclopropyl-N-{1-[1-(2,3-dimethoxyphenyl)ethyl]azetidin-3-yl}-1H-1,2,3-triazole-4-carboxamide] | 0.0935 | – |
| CNCc1cccc(C(C)N2CC(NC(=O)c3cn(C4CC4)nn3)C2)c1 (centres unmarked) [compound 771, 1-cyclopropyl-N-[1-(1-{3-[(methylamino)methyl]phenyl}ethyl)azetidin-3-yl]-1H-1,2,3-triazole-4-carboxamide] | 4.98 | – |
| O=C(NC1CN(Cc2cncn2CCc2ccccc2)C1)c1cn(C2CC2)nn1 [compound 810, 1-cyclopropyl-N-(1-{[1-(2-phenylethyl)-1H-imidazol-5-yl]methyl}azetidin-3-yl)-1H-1,2,3-triazole-4-carboxamide] | 9.29 | – |
| CNCc1cccc(CN2CC(NC(=O)c3cn(C4CC4)nn3)C2)c1OC [compound 812, 1-cyclopropyl-N-[1-({2-methoxy-3-[(methylamino)methyl]phenyl}methyl)azetidin-3-yl]-1H-1,2,3-triazole-4-carboxamide] | 41.2 | – |
| O=C(NC1CN(Cc2ccc(OCC(O)CO)cc2)C1)c1cn(C2CC2)nn1 (centres unmarked) [compound 819, 1-cyclopropyl-N-(1-{[4-(2,3-dihydroxypropoxy)phenyl]methyl}azetidin-3-yl)-1H-1,2,3-triazole-4-carboxamide] | 1.99 | – |
| O=C(NC1CN(C[C@H]2C[C@@H](OCc3ccccc3)C2)C1)c1cn(C2CC2)nn1 [compound 843, (±)-cis-N-(1-{[3-(benzyloxy)cyclobutyl]methyl}azetidin-3-yl)-1-cyclopropyl-1H-1,2,3-triazole-4-carboxamide] | – | IC50 (SMYD2; [2]): 1.16 µM |
| CC(c1ccc(OCC(=O)N2CCCCC2)cc1)N1CC(NC(=O)c2cn(C3CC3)nn2)C1 (centres unmarked) [compound 844, 1-cyclopropyl-N-[1-(1-{4-[2-oxo-2-(piperidin-1-yl)ethoxy]phenyl}ethyl)azetidin-3-yl]-1H-1,2,3-triazole-4-carboxamide] | 1.55 | – |
| CC(c1ccc(OCc2cccc(Cl)c2)cc1)N1CC(NC(=O)c2cn(C3CC3)nn2)C1 (centres unmarked) [compound 847, N-[1-(1-{4-[(3-chlorophenyl)methoxy]phenyl}ethyl)azetidin-3-yl]-1-cyclopropyl-1H-1,2,3-triazole-4-carboxamide] | 0.274 | – |
| CC(c1ccc(OCc2ccc(Cl)cc2)cc1)N1CC(NC(=O)c2cn(C3CC3)nn2)C1 (centres unmarked) [compound 848, N-[1-(1-{4-[(4-chlorophenyl)methoxy]phenyl}ethyl)azetidin-3-yl]-1-cyclopropyl-1H-1,2,3-triazole-4-carboxamide] | 0.0693 | – |
| CC(c1ccc(OCC2CCCNC2)cc1)N1CC(NC(=O)c2cn(C3CC3)nn2)C1 (centres unmarked) [compound 850, 1-cyclopropyl-N-(1-{1-[4-(piperidin-3-ylmethoxy)phenyl]ethyl}azetidin-3-yl)-1H-1,2,3-triazole-4-carboxamide] | 3.33 | – |
| O=C(NC1CN(C[C@H]2C[C@H](OCc3ccccc3)C2)C1)c1cn(C2CC2)nn1 [compound 852, (±)-trans-N-(1-{[3-(benzyloxy)cyclobutyl]methyl}azetidin-3-yl)-1-cyclopropyl-1H-1,2,3-triazole-4-carboxamide] | – | IC50 (SMYD2; [2]): 0.982 µM |
| CC(c1ccc(NC(=O)c2ccccc2)cc1)N1CC(NC(=O)c2cn(C3CC3)nn2)C1 (centres unmarked) [compound 863, N-{1-[1-(4-benzamidophenyl)ethyl]azetidin-3-yl}-1-cyclopropyl-1H-1,2,3-triazole-4-carboxamide] | 1.74 | – |
| O=C(NC1CN(C[C@H]2C[C@H](OCc3ccccc3)C2)C1)c1cn(C2CC2)nn1 [compound 969, rac-N-(1-(((1r,3r)-3-(benzyloxy)cyclobutyl)methyl)azetidin-3-yl)-1-cyclopropyl-1H-1,2,3-triazole-4-carboxamide] | – | IC50 (SMYD2; [3]): 0.98 µM |
| O=C(NC1CN(C[C@H]2C[C@@H](OCc3ccccc3)C2)C1)c1cn(C2CC2)nn1 [compound 1008, rac-N-(1-(((1s,3s)-3-(benzyloxy)cyclobutyl)methyl)azetidin-3-yl)-1-cyclopropyl-1H-1,2,3-triazole-4-carboxamide] | – | IC50 (SMYD2; [3]): 1.2 µM |

The next lines start with results.

| IC50 (SMYD2; [1]) [µM] | Structure (SMILES) | other results |
| --- | --- | --- |
| 1.7 | CC(C)N1CC(NC(=O)c2ncc(C3CC3)[nH]2)C1 [compound 913, 5-cyclopropyl-N-[1-(propan-2-yl)azetidin-3-yl]-1H-imidazole-2-carboxamide] | – |
| 3.3 | CC(c1ccc(OCC2CCCNC2)cc1)N1CC(NC(=O)c2cn(C3CC3)nn2)C1 (centres unmarked) [compound 990, 1-cyclopropyl-N-(1-(1-(4-(piperidin-3-ylmethoxy)phenyl)ethyl)azetidin-3-yl)-1H-1,2,3-triazole-4-carboxamide] | – |
| 0.069 | CC(c1ccc(OCc2ccc(Cl)cc2)cc1)N1CC(NC(=O)c2cn(C3CC3)nn2)C1 (centres unmarked) [compound 996, N-(1-(1-(4-((4-chlorobenzyl)oxy)phenyl)ethyl)azetidin-3-yl)-1-cyclopropyl-1H-1,2,3-triazole-4-carboxamide] | – |
| 0.27 | CC(c1ccc(OCc2cccc(Cl)c2)cc1)N1CC(NC(=O)c2cn(C3CC3)nn2)C1 (centres unmarked) [compound 997, N-(1-(1-(4-((3-chlorobenzyl)oxy)phenyl)ethyl)azetidin-3-yl)-1-cyclopropyl-1H-1,2,3-triazole-4-carboxamide] | – |
| 1.5 | CC(c1ccc(OCC(=O)N2CCCCC2)cc1)N1CC(NC(=O)c2cn(C3CC3)nn2)C1 (centres unmarked) [compound 1004, 1-cyclopropyl-N-(1-(1-(4-(2-oxo-2-(piperidin-1-yl)ethoxy)phenyl)ethyl)azetidin-3-yl)-1H-1,2,3-triazole-4-carboxamide] | – |
